Assays:
FcγRIIIb (human) = FcγRIIIb (human) (UniProt O75015); experiment: SPR; Fc gamma receptor immobilised on a BIAcore CM5 chip by amine coupling (10 mM sodium acetate pH 5.0); antibody samples serially diluted in HBS-EP pH 7.4; steady state model; result as KD of CT-P6 in-house reference standard / KD of sample x 100
[1] = target: CT-P6 (biosimilar product of trastuzumab) (human); experiment: ELISA; antibody samples serially diluted (60,000 to 27.43 ng/mL) and coated on the plate; 10 ug/mL C1q for 2 hours in CaCl2 assay buffer; bound C1q detected with anti-C1q-HRP; result as EC50 of CT-P6 in-house reference standard / EC50 of sample x 100
[2] = target: EU-Herceptin® (trastuzumab reference product, EU) (human); experiment: as above

Chains of the proteins cited; added tags and fusions are not shown. Chains listed by the source or under a name are the forms on record and can include a tag or linker. Residues count along the entry.
UniProt O75015, 17-233: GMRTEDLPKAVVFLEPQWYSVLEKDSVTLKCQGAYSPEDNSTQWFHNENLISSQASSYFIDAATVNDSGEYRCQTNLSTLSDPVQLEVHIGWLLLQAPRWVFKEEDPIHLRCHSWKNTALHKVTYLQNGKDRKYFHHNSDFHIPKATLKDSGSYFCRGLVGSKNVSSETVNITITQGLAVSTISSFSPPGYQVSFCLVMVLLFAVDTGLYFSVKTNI
UniProt P02745, 23-245: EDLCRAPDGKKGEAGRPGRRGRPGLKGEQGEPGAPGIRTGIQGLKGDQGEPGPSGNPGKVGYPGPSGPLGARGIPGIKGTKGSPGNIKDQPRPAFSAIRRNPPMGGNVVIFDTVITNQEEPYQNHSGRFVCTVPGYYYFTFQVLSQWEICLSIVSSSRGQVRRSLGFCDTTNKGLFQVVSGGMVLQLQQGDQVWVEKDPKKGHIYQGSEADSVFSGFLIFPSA
C1q complement, UniProt P02746, 28-253: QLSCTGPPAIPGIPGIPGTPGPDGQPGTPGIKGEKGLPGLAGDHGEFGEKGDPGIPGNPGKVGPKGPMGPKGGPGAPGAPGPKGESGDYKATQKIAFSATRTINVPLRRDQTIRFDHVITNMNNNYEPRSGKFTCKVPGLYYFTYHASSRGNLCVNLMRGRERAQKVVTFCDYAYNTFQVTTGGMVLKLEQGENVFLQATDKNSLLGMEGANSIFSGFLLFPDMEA
C1q complement, UniProt P02747, 29-245: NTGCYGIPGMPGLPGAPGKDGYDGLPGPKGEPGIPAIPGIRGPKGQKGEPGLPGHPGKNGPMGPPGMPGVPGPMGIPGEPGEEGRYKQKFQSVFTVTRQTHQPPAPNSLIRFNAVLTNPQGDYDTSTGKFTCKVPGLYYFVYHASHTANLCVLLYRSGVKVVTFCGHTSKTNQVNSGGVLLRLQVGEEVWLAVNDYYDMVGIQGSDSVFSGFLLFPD
CT-P6 (biosimilar product of trastuzumab) (human), light, as listed by the source, chain 2 of 2: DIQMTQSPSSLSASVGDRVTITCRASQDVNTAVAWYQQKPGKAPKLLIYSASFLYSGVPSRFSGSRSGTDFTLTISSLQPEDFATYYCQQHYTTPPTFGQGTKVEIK

Row | Substance | relative binding affinity (% of CT-P6 in-house reference standard), mean of lots (FcγRIIIb (human)) [%] | relative C1q binding affinity (% of CT-P6 in-house reference standard, from EC50), mean of lots [1] [%] | relative C1q binding affinity (% of CT-P6 in-house reference standard, from EC50), mean of lots [2] [%]
1 | CT-P6 (biosimilar product of trastuzumab) (antibody) | 97 |  | 
2 | EU-Herceptin® (trastuzumab reference product, EU) (antibody) | 89 |  | 
3 | US-Herceptin® (trastuzumab reference product, US) (antibody) | 83 |  | 
4 | C1q complement (from UniProt P02745 23-245; P02746 28-253; P02747 29-245) (complex) |  | 104 | 100

From PMC5973688
